Test: pH drop suppression test of water-miscible cutting fluid (circulation and blue LED irradiation)
Assay type: physicochemical

## CCCCOP(OCCCC)OCCCC
100%×(pH at preparation−pH after continuing use)/(pH at preparation), riboflavin cutting fluid with the named antioxidant
  pH change rate (%): 4.7%
Class by pH change rate, riboflavin cutting fluid with the named antioxidant
  Evaluation of pH drop supression: A (pH change rate of 15% or lower)
Riboflavin cutting fluid containing the named antioxidant, one month, Table 3 (same values as Table 2)
  pH change: 0.4
